Antibody variant affinities, Ab-14 heavy chain, assay 1

Target: peptide PDVDLGDISGINAS, taken from heptad repeat 2 (HR2) of SARS-CoV-2 spike.

Ab-14 is the parent antibody, in scFv form: VH, then a (GGGGS)3 linker, then VL. The light chain is unchanged in all variants.
VH: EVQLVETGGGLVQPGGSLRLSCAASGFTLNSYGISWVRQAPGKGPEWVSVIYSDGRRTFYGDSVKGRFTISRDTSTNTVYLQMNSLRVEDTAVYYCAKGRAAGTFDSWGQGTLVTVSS
VL: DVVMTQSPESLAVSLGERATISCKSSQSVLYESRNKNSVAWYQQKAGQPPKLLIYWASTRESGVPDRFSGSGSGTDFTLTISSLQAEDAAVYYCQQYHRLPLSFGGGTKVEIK

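The parent was found by panning a naive human phage display library on the peptide. In library AAYL49, one, two or three CDR residues were substituted; doubles and triples were drawn at random. In AlphaSeq, yeast of one mating type display the scFv and yeast of the other type display the target. Binding brings cells together so that they mate, and sequencing counts the barcode pairs among the diploids. Each replicate has its own calibration line, from reference interactions of the BCL2 family. The assay was run in three technical replicates.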

Each variant is given by its three heavy chain CDRs, as the data file delimits them; those of the parent are GFTLNSYGIS, VIYSDGRRTFYGDSVK, GRAAGTFDS.
Kd is apparent (estimated from mating counts) and averaged on the log scale over replicates with a signal. Smaller is tighter.
"not detected" marks a missing value. The strain was present, yet no cells mated with the target were sequenced in any replicate, which points to weak or no binding.

Kd (apparent)	seen in	CDR-H1	CDR-H2	CDR-H3
12 µM	1/3	RFTLNSGGIS	WIYSDGRRTFYGDSVK	GRAAGTFDS
740 nM	1/3	GFTLNSYEIS	VIYSDGMRTFYGDSVK	GVAAGTFDS
not detected	0/3	GFTLNSYGIS	VIYSDSRDTFYGDSVK	GRAAGTFDS
29 µM	2/3	GFTLLSYGIS	VIYSWGRRFFYGDSVK	GRAAGTFDS
9.5 nM	3/3	GFELNSYGIS	VIYSDGTRTFYGDSVK	GRAAGTFDS
5.2 µM	2/3	GFTLNSYGIS	VIYSDGRGTFYGDYVK	GRASGTFDS
not detected	0/3	GFTLNSYGIS	VIYSDGQRTFYGDSVK	GPAAGTIDS
23 nM	3/3	GFTLNSYGIS	VIYSDGRRTFYGDSVK	GPAAGTFTC
not detected	0/3	GFTANSYGIS	VIYSDGRRTFYGDSHK	GRDAGTFDS
not detected	0/3	GFTLNSYGIS	VIYVDGRRTFYADSHK	GRAAGTFDS
6.0 µM	1/3	GFTLNSYGIS	VIIVDGRRTFYGDSVK	GRAAGTDDS
9.4 µM	2/3	GFTLNSYGIS	VIYAMGRRTFYDDSVK	GRAAGTFDS
2.8 µM	1/3	GFTCNSYGIS	VILSDGPRTFYGDSVK	GRAAGTFDS
not detected	0/3	GFTLNSYGIS	VIYSDGRRTFYIDSVK	GRAAWTFDI
14 µM	3/3	GFTLNSLAIS	VIYSDGRRTFYGDEVK	GRAAGTFDS
not detected	0/3	GFTLNSDGIS	VIWSDGRRTFYGDSVK	GRAAGNFDS
not detected	0/3	GFTLNSYGII	VIYSDGRKTFYGDSVK	GRAAYTFDS
not detected	0/3	GFTLNSWIIS	VIYSDGRRTFYGDSVK	GRAAGTWDS
not detected	0/3	GFTLNSYGIS	VIYFDGRRTFYGMSVK	GRAAATFDS
330 µM	1/3	GFTLNSYNIS	VIYSDGRRTRYGDSVK	GRAIGTFDS
not detected	0/3	GFTLNSYGIS	VIYSDGRRCPYDDSVK	GRAAGTFDS
not detected	0/3	GFTLNSYGIS	VIYSDGRRTFYGDSVT	GRWAGTFSS
not detected	0/3	GFTLNSYGIS	VIYSDGRRTFYGLSVW	GRAAGTRDS
not detected	0/3	GFTLNSLGIS	RIESDGRRTFYGDSVK	GRAAGTFDS
7.9 µM	1/3	GFTLNSFGIS	VIYSDGRRTYYGDSVK	GRAAGTFIS
8.5 µM	1/3	GFTLNSYGPS	VIVSDGRRTFYGDSVK	GRAAGTFDS
120 µM	1/3	GFTLNSYGAS	VIYGDGRRTFYGDSVK	GRAAGTFDQ
2.3 µM	3/3	GFTKNSYGIS	VIYSDGRRTFYGDSVK	GEAAGTFDK
3.4 µM	1/3	GFTLNSYGIS	VIYSKGRRTFYGDSVK	SRAAGTHDS
340 nM	1/3	IFTLNSYGIS	VIYSRGRRTFYGDSVS	GRAAGTFDS
260 nM	3/3	GFILNSYGIS	VIYSDGRRTWYGDSVK	GRAAGTFDS
not detected	0/3	GFTLNSQGIS	VIYSDGRRTKHGDSVK	GRAAGTFDS
not detected	0/3	GFTQNSYGIS	VIYSDGRRTFGGDSVK	GRAAGTFDS
not detected	0/3	GFTLNYYGTS	VTYSDGRRTFYGDSVK	GRAAGTFDS
not detected	0/3	GFTLNDYGIS	VIYSKGRRTFYGDSVK	GRFAGTFDS
not detected	0/3	GFTLNSYGIS	VIYSDGDLTFYGQSVK	GRAAGTFDS
not detected	0/3	HFTLNSYGFS	VIYSDGRRTFYGDSVK	GRAASTFDS
not detected	0/3	GFTLNSYEIS	VIYSDPRRTFYGDSVK	GRWAGTFDS
120 µM	2/3	GFTLNSYGIL	VIYSDTRRMFYGDSVK	GRAAGTFDS
3.7 µM	1/3	GFTGNSAGIV	VIYSDGRRTFYGDSVK	GRAAGTFDS
not detected	0/3	GFTLNNYGIS	VIYSDGRRTFRGDSVK	GRAAGQFDS
45 nM	3/3	GFTLNTQGIS	VIYSDGRRTFYGDSVK	GRAAGTFDS
not detected	0/3	GETYNSYGIS	VIYMDGRRTFYGDSVK	GRAAGTFDS
not detected	0/3	GFTLNSYLIS	VIYSCGRRTFYGMSVK	GRAAGTFDS
not detected	0/3	GFTLNSYGDS	VIYSDGRRTFYGDSVK	GRAATEFDS
1.6 µM	3/3	GFTLNSYGIS	VIYSDGRRTFYGDTNK	GRLAGTFDS
not detected	0/3	GDTLYSYGIS	VIYSDGRRTFYGDSVK	GRACGTFDS
not detected	0/3	GFTLSSYGIS	VIYSDGRRTFYGDSGK	GRAAGTPDS
not detected	0/3	GFRLNSYGNS	VLYSDGRRTFYGDSVK	GRAAGTFDS
not detected	0/3	GHTLNSYGIS	VIYSDGRRTFYGDSWK	GRAAGTFDF
4.2 µM	2/3	GFTLNIYGIS	VIYSDGRRTRYGDSVK	GRAAGTFDY
14 nM	3/3	GFTLNSYGIS	VIYSDGRRTFYGDMVK	GRMAGVFDS
not detected	0/3	GFTLNSYGIS	VIYSQGRRTFYPDSVK	GRAWGTFDS
150 µM	1/3	GFTLFSYGIS	VIYSDSRRTFYGDSVK	GPAAGTFDS
not detected	0/3	GFTLNRYGIS	VIYSDGRRTFYGDSVK	GRAAWTFDS
not detected	0/3	GFTLNMYGTS	VIYSDGRRTFYGDSVK	GRAAGTFDS
not detected	0/3	GFTLNWYGIS	SIYSDGRRTFYGDSVV	GRAAGTFDS
78 nM	3/3	GFYLNSYGIS	VIYSDGRRTFYGDSVK	GRGAGTFCS
570 nM	1/3	GFTLNSYGWS	VIYSDGRRTFYGDSWK	GVAAGTFDS
57 nM	3/3	GFTLNSYGIS	VIYSDGRRTFYMDKVK	PRAAGTFDS
not detected	0/3	GFTLNSYIDS	VIYSDGRGTFYGDSVK	GRAAGTFDS
not detected	0/3	GFTANSYGIS	VIYSDGRVTFYFDSVK	GRAAGTFDS
not detected	0/3	GFTLNSRGIS	VIYSDGNRTFYGHSVK	GRAAGTFDS
not detected	0/3	GFTLNSYFIA	VIYVDGRRTFYGDSVK	GRAAGTFDS
940 nM	1/3	GFTLNSYGIS	VIYSGGRRTFYGDSVK	GQRAGTFDS
6.3 µM	1/3	GFTLNSYGIS	VIYSKGRRTFYGDSVK	GRAAKTFDV
not detected	0/3	GFTLNSYGIS	VINSDGRRTFYGDSHK	GRAAGWFDS

The last 9 entries again:

CDR-H1	CDR-H2	CDR-H3	Kd (apparent)	seen in
GFTLNSYGWS	VIYSDGRRTFYGDSWK	GVAAGTFDS	570 nM	1/3
GFTLNSYGIS	VIYSDGRRTFYMDKVK	PRAAGTFDS	57 nM	3/3
GFTLNSYIDS	VIYSDGRGTFYGDSVK	GRAAGTFDS	not detected	0/3
GFTANSYGIS	VIYSDGRVTFYFDSVK	GRAAGTFDS	not detected	0/3
GFTLNSRGIS	VIYSDGNRTFYGHSVK	GRAAGTFDS	not detected	0/3
GFTLNSYFIA	VIYVDGRRTFYGDSVK	GRAAGTFDS	not detected	0/3
GFTLNSYGIS	VIYSGGRRTFYGDSVK	GQRAGTFDS	940 nM	1/3
GFTLNSYGIS	VIYSKGRRTFYGDSVK	GRAAKTFDV	6.3 µM	1/3
GFTLNSYGIS	VINSDGRRTFYGDSHK	GRAAGWFDS	not detected	0/3

Parent in this assay: reference entry 4.4 nM, copy in this library 13 µM (one replicate of three).
Background: pairings of library AAYL49 with three empty control strains gave a value in 15% of cases (median 11 µM, 5th percentile 680 nM). Values in that range, when seen in few replicates, are hard to tell from nonspecific mating.

Data: MIT Lincoln Laboratory AlphaSeq set, Engelhart et al. 2022, doi:10.1038/s41597-022-01779-4, as distributed in FLAb.